{"source": "patent US20060292186A1", "about": "“Self-nanoemulsifying oily formulation for the administration of poorly water-soluble drugs” (Novagali Pharma SA, priority 2003, published 2006)", "origin": "cited, not measured here", "conditions": "cited from earlier work"}
{"substance": "D-α-tocopheryl polyethylene glycol succinate 1000 [TPGS]", "values": [{"measurement": "rodent oral DL50 compared with Cremophor EL", "result": "lower"}]}
{"substance": "oxyethylated tert-octylphenol formaldehyde polymer [tyloxapol]", "values": [{"measurement": "rodent oral DL50 compared with Cremophor EL", "result": "lower"}]}
